Measurements as given in patent US5023244A, “Anti-dementia agents” (Hoechst Japan Limited, priority 1986, dated 1991).

Test system: adenosine receptors

Cn1c(=O)c2[nH]cnc2n(C)c1=O [theophylline]
Memory-improving effects of adenosine derivatives (I) after prior administration of theophylline: the effects were reduced
